High-throughput results: PubChem, National Center for Advancing Translational Sciences (NCATS)
Nrf2 activator: activates Nrf2 signaling; AREc32 ARE-luciferase reporter (MCF7-derived line), luminescence, 24 h; Potency, µM (titrated, usually from 46.1 µM), inactives show at the highest dose activation, actives largely listed as activators; actives 0.31% (n = 410,000); AID 624171; note: potency is the fitted concentration of half-maximal effect; % of control where 0% means no effect; nearly all actives have a fitted effect of over 65% in size
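AREc32 cells carrying an ARE-driven firefly luciferase reporter were seeded at 1000 cells/well in OPTI-MEM with 5% FBS, then exposed to compound for 24 hr at 37 deg C. Luminescence was read with Steady-Glo after 30 min at RT.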
A549 tox: kills or reduces viability of A549 cells in Nrf2 counter-screen | actives 0.16% (n = 390,000) | Potency, µM (highest dose often 46 µM), without a hit: at the top dose activity change, negative = cytotoxicity, usual class: inhibitors | A549 ARE-Fluc cells, CellTiter-Fluor viability, 18-24 h; note: potency is the fitted concentration of half-maximal effect; % is set by controls: 0 for no effect and ±100 for the full control effect
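A549 ARE_Fluc cells in 5% FBS OPTI-MEM were exposed to compounds in concentration-response for 18-24 h at 37 deg C. Viability was read by CellTiter-Fluor fluorescence (Ex 405/Em 525) after 30 min, before the luciferase read.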
Nrf2 block: Nrf2 pathway inhibition; AID 504444; actives 2.1% (n = 360,000); Potency, µM (series often up to 46 µM), without a hit: top-dose activity change, negative = inhibition, usual class: inhibitors; A549 ARE-Fluc reporter, luciferase luminescence, 18-24 h; note: potency is the fitted concentration of half-maximal effect; % is set by controls: 0 for no effect and ±100 for the full control effect; nearly all actives have a fitted effect of over 60% in size
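In this cell-based qHTS, ARE-driven firefly luciferase in A549 cells reports Nrf2 activity; the luminescent signal after BugLite lysis is the measured value, with a prior CellTiter-Fluor read for cell health.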
B2AR arrestin: recruits beta-arrestin to the human beta2-adrenergic receptor. P07550. beta-arrestin recruitment to beta2AR, cell-based reporter. Potency, µM (highest dose often 46.1 µM), for inactives: top-dose activation, actives largely listed as activators. actives 0.02% (n = 330,000);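 note: potency is the fitted concentration of half-maximal effect; 0% = DMSO controls and full agonism = EC100 isoproterenol or metaproterenol; nearly all actives have a fitted effect of over 65% in size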
miR-21 reporter: raises the signal of a miR-21 reporter | HeLa miR-21 FLuc reporter, luciferase, 48 h | Potency, µM (doses to about 38.3 µM), without a hit: at the top dose reporter change, positive = more light | 340,000 tested, under 10 active | AID 2288; active = well fitted rising curve with a large enough effect; inconclusive = small, poorly fitted or top-dose-only effect; inactive = no such curve, though single readings can be large or run the other way;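 note: % of control where 0% means no effect; miR-21 action dims this reporter so a rising signal means less miR-21 action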
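HeLa cells stably expressing CMV-driven firefly luciferase with a downstream miR-21 binding sequence, endogenously expressing miR-21, were treated with titrations (up to about 40uM final) for 48 hours at 37 degree Celsius. Luciferase luminescence was read after lysis.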
Active calls of the source: *; ? = inconclusive; / = not tested or not shown; [ ] = dose if it differs, or a comment. This is a sample that favours compounds with a hit; in the whole collection about 2.2% have one here. Unless noted, calls come from the whole dose curve; as a rule, active = well fitted curve in the direction sought with a large enough effect; inconclusive = small, poorly fitted or top-dose-only effect, or another doubt; inactive = no such curve, though single readings can be large; an effect the other way counts as inactive or inconclusive.

1. Cc1ccc(-c2nn(CC(=O)Nc3cccc(C(F)(F)F)c3)c(=O)c3ccccc23)cc1
2. COc1cccc(OCc2cc(C3Nc4ccccc4C(=O)N3c3ccccc3)ccc2OC)c1 (stereo unspecified)
3. O=C(Cc1ccccc1)Nc1c(C(=O)Nc2ccccc2F)oc2ccccc12
4. COc1ccc(C2NC(c3ccc4c(c3)OCO4)=CC(c3ccccc3O)N2)cc1OC (stereo unspecified)
5. CCOC(=O)c1ccccc1NC(=O)c1cnc(N2CCOCC2)c2ccccc12

Compound | 1 | 2 | 3 | 4 | 5
Nrf2 block | ? | 5% | 7% | 3% | /
miR-21 reporter | 16% | / | -8% | / | -3%
Nrf2 activator | 3% | / | -1% | / | 4%
B2AR arrestin | / | / | / | / | /
A549 tox | -1% | -6% | 4% | -5% | -18%

6. Cc1ccc(NC(=O)Cc2ccc(Cl)c(Cl)c2)cc1S(=O)(=O)N(C)C
7. Cc1ccc(NC(=O)CNc2ccc(Cl)c(Cl)c2)cc1S(=O)(=O)N(C)C
8. Cc1ccc(NC(=O)c2ccc(OC(F)(F)F)cc2)cc1S(=O)(=O)N(C)C
9. CCN(CC)S(=O)(=O)c1cccc(NC(=O)CCNC(=O)c2ccc([N+](=O)[O-])cc2)c1
10. Cc1cc(C)n(-c2ccc(C(=O)Nc3ccc(S(=O)(=O)NCc4ccco4)cc3)cc2)n1

Compound | 6 | 7 | 8 | 9 | 10
Nrf2 block | ? | 12µM* | 12µM* | 23µM* | 26µM*
miR-21 reporter | 15% | 24% | 24% | 7% | ?
Nrf2 activator | 0% | -1%[9.22 µM] | 4% | 3% | -2%
B2AR arrestin | 6% | 3% | 0% | 0% | -4%
A549 tox | -27% | ? | -6% | -8% | ?

11. Cc1c(C(=O)NC(C)c2ccccc2)sc2ncnc(N(C)C3CCCCC3)c12 (stereo unspecified)
12. COc1ccc2c(c1)c1nnc(SC)nc1n2Cc1ccccc1
13. CC(=O)C1=C(c2ccc(Cl)c(Cl)c2)N(C(C)=O)n2cnnc2S1
14. CCN(CC)S(=O)(=O)c1cccc(NC(=O)c2ccc(-n3nc(C)cc3C)cc2)c1
15. O=C(Nc1ccccc1)c1ccc(S(=O)(=O)NCc2ccco2)cc1

Compound | 11 | 12 | 13 | 14 | 15
Nrf2 block | / | 16% | / | 18µM* | /
miR-21 reporter | 18% | / | -6% | 26% | -1%
Nrf2 activator | 0% | / | -1% | 1% | 3%
B2AR arrestin | / | / | / | -1% | 0%
A549 tox | -5% | 8% | ? | ? | -8%

In another format: 2 of the compounds above.
Below each compound – Nrf2 block, miR-21 reporter, Nrf2 activator, B2AR arrestin, A549 tox
13: CC(=O)C1=C(c2ccc(Cl)c(Cl)c2)N(C(C)=O)n2cnnc2S1
→ /, -6%, -1%, /, ?
12: COc1ccc2c(c1)c1nnc(SC)nc1n2Cc1ccccc1
→ 16%, /, /, /, 8%

Carrying on.
16. O=C(Nc1ccccc1)c1cccc(S(=O)(=O)NCc2ccco2)c1
17. CN(C)S(=O)(=O)Oc1ccc(C(=O)Nc2cccc(Cl)c2)cc1
18. CN(C)S(=O)(=O)Oc1ccc(C(=O)Nc2cccc(C(F)(F)F)c2)cc1
19. Cc1cc(C)n(-c2ccc(C(=O)Nc3ccc(S(=O)(=O)N(C)C)cc3)cc2)n1
20. CN(C)c1ccc(C(CNC(=O)c2ccccc2F)N2CCc3ccccc32)cc1 (stereo unspecified)

Compound | 16 | 17 | 18 | 19 | 20
Nrf2 block | 16µM* | ? | 23µM* | ? | /
miR-21 reporter | 15% | 10% | 25% | ? | -40%
Nrf2 activator | 15% | 2% | 0% | 0% | 9%
B2AR arrestin | 0% | 0% | 0% | 0% | /
A549 tox | ? | -3% | ? | -23% | 0%

Two entries picked at random from those above:
16. O=C(Nc1ccccc1)c1cccc(S(=O)(=O)NCc2ccco2)c1
19. Cc1cc(C)n(-c2ccc(C(=O)Nc3ccc(S(=O)(=O)N(C)C)cc3)cc2)n1

Compound | 16 | 19
Nrf2 block | 16µM* | ?
miR-21 reporter | 15% | ?
Nrf2 activator | 15% | 0%
B2AR arrestin | 0% | 0%
A549 tox | ? | -23%

Further entries follow:
21. Cc1ccc(-c2csc(=Nc3cccnc3)n2CCCn2ccnc2)cc1C
22. Cn1cc([C@@H]2C[C@H]3CN(Cc4cccc(Cl)c4)C(=O)[C@]34CCCN24)c(-c2ccccc2)n1
23. O=C1N(Cc2cccc(Cl)c2)C[C@@H]2C[C@@H](c3cccn3-c3cccnc3)N3CCC[C@@]123
24. Cc1nc(-c2ccc([S+](=O)([O-])N3CCN([S+](=O)([O-])c4c(F)cccc4F)CC3)s2)cs1
25. CC(C)(C)OC(=O)N1CCC(c2nnc(SCc3ccccc3Cl)o2)CC1

Compound | 21 | 22 | 23 | 24 | 25
Nrf2 block | 18µM* | 21µM* | 21µM* | 4% | -21%
miR-21 reporter | ? | 3% | 25% | / | 14%
Nrf2 activator | 0% | -1% | 0% | / | 0%
B2AR arrestin | 0% | 0% | 0% | / | /
A549 tox | -6% | ? | -13% | 0% | -3%

26. CC(C)(C)OC(=O)N1CCC(c2nnc(SCc3ccccc3F)o2)CC1
27. CCN1CCN(C(=O)c2cc3c(s2)-c2ccccc2S(=O)(=O)C3)CC1
28. O=C(c1cc2c(s1)-c1ccccc1S(=O)(=O)C2)N1CCN(Cc2ccccc2)CC1
29. O=S(=O)(c1ccc(-c2csc(-c3cccnc3)n2)cc1)N1CCCCC1
30. c1cncc(-c2csc(-c3cccnc3)n2)c1

Compound | 26 | 27 | 28 | 29 | 30
Nrf2 block | 21µM* | 10% | 18µM* | 21µM* | ?
miR-21 reporter | 24% | -9% | 24% | -8% | -13%
Nrf2 activator | 0% | 0% | 3% | 0% | -1%
B2AR arrestin | / | 0% | 0% | -1% | 0%
A549 tox | ? | 1% | -15% | -15% | -1%

31. Clc1ccsc1-c1csc(-c2cccnc2)n1
32. O=S(=O)(c1ccc(-c2csc(-c3cccnc3)n2)cc1)N1CCCC1
33. O=S(=O)(c1ccc2c(c1)OCCO2)N1CCN(S(=O)(=O)c2ccc(F)cc2F)CC1
34. CC1=NN(c2ccccc2)C(=O)C1C(=O)c1ccccc1 (stereo unspecified)
35. CC1=NN(c2ccccc2)C(=O)C1C(=O)c1ccc(Cl)cc1 (stereo unspecified)

Compound | 31 | 32 | 33 | 34 | 35
Nrf2 block | / | ? | 7% | ? | 18µM*
miR-21 reporter | -16% | -7% | / | 25% | 27%
Nrf2 activator | 2.2µM* | 2% | / | 0% | 0%
B2AR arrestin | 0% | -1% | / | 0% | -1%
A549 tox | ? | -10% | 2% | -13% | ?

36. CCCN1C(=O)c2ccccc2NC1c1ccc(OC)c(COc2cccc(OC)c2)c1 (stereo unspecified)
37. O=C(CCNc1cccc(F)c1)c1cccc([N+](=O)[O-])c1
38. O=C(Nc1cccc([N+](=O)[O-])c1)c1cnccn1
39. O=C(Nc1cccc([N+](=O)[O-])c1)c1ccncc1
40. O=C(Nc1cccc([N+](=O)[O-])c1)c1[nH]ncc1Cl

Compound | 36 | 37 | 38 | 39 | 40
Nrf2 block | ? | 0% | 11% | 6% | ?
miR-21 reporter | / | 0% | -9% | -2% | -46%
Nrf2 activator | / | ? | ? | 11µM* | 5µM*
B2AR arrestin | / | 0% | 0% | 0% | 0%
A549 tox | -19% | 5% | -2% | 7% | 12%

41. O=C(CCNc1ccc(Cc2ccncc2)cc1)c1cccc([N+](=O)[O-])c1
42. Cc1cc2c(s1)c1c(n2C)C(=O)N(Cc2ccccc2F)C1
43. O=C(OCC#CCSc1nnc(-c2ccccc2)o1)c1ccc(F)cc1
44. CCOC(=O)/C(=C/C=C/c1ccccc1)NC(=O)c1ccccc1
45. CCOC(=O)/C(=C\C=C\c1ccccc1)NC(=O)c1ccccc1

Compound | 41 | 42 | 43 | 44 | 45
Nrf2 block | 15µM* | / | 16% | -10% | 9.2µM*
miR-21 reporter | -1% | / | / | -10% | -8%
Nrf2 activator | ? | / | / | 0% | 6%
B2AR arrestin | 0% | -1% | / | -1% | 0%
A549 tox | -8% | / | -1% | -4% | -15%

46. CCOc1ccc(S(=O)(=O)NCc2ccc3c(c2)CCN3C(=O)c2ccc(C)cc2)cc1
47. COC(=O)c1ccc2nc(-c3cccc(Cl)c3)c(Cc3cccc(Cl)c3)n2c1
48. COC(=O)c1ccc2nc(-c3ccco3)c(Cc3cccc(Cl)c3)n2c1
49. Clc1ccc2nc(-c3ccco3)c(Cc3ccsc3)n2c1
50. Clc1ccc2nc(-c3ccco3)c(Cc3ccccc3)n2c1
51. Cc1ccc(NC(=O)c2ccc(NC(=O)C3CCCC3)cc2)c(C)c1

Compound | 46 | 47 | 48 | 49 | 50 | 51
Nrf2 block | / | / | / | / | / | 2%
miR-21 reporter | -8% | / | / | / | / | /
Nrf2 activator | 5% | 17% | 5.6µM* | 11µM* | 10µM* | /
B2AR arrestin | / | / | / | / | / | /
A549 tox | -15% | / | / | / | / | 8%
